# This is a selection; strong and weak results do not stand in their true shares. Calls of active or inactive are those of the source.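 The calls were made as follows: active = inhibition above 20% in each of the two mixture wells holding the compound; inactive = inhibition of 20% or less in either well.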
# By UniProt entry, the sequences of proteins in these tests, tags left out. Residues count along the entry.
# UniProt P08311, 21-244 limits assumed: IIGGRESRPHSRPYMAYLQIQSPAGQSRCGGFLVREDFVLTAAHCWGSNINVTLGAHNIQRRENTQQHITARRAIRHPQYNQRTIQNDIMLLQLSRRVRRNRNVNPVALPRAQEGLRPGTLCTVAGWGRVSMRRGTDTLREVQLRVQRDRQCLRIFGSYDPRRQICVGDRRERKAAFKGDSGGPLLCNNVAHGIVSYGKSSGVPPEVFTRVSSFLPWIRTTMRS
# Target: Cathepsin G (Homo sapiens) (UniProt P08311)
# Experiment: human cathepsin G inhibitors, primary screen, biochemical, pooled compound mixtures, AMC fluorescence (AID 581);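 also: 0% = enzyme control without mixture and 100% = blank lacking enzyme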
# Details: purified enzyme, AMC-tetrapeptide fluorescence, hits give high values, screened at 5 µM (by protocol)
row,SMILES,inhibition
1,CP(=O)(Nc1ccccc1F)Oc1ccccc1 (stereo not drawn),inactive: 8.98%
2,Cc1ccccc1NP(C)(=O)Nc1ccccc1C,inactive: 1.49%
3,CP(=O)(Nc1ccc2c(c1)OCCO2)Oc1ccccc1 (stereo not drawn),inactive: 11.1%
4,CCOP(C)(=S)SCC(=O)NC(C)(CC)C(=O)O (stereo not drawn),inactive: 0.005%
5,CN(C)CCOC(=O)C(O)(c1ccccc1)C1CCCCC1 (stereo not drawn),inactive: -3.18%
6,CP(=O)(Oc1ccccc1)N1CCOC1=O (stereo not drawn),inactive: 11.6%
7,COc1ccccc1OP(C)(=O)Nc1c(C)n(C)n(-c2ccccc2)c1=O (stereo not drawn),inactive: -3.69%
8,CCN(CC)CC(O)COC(=O)C(O)(c1ccccc1)C1CCCCC1 (stereo not drawn),inactive: 12.4%
9,CP(=O)(Nc1ccccn1)Oc1ccccc1 (stereo not drawn),inactive: 11.4%
10,Cc1nc2ccc3ccccc3c2o1.O=[N+]([O-])c1cc([N+](=O)[O-])c(O)c([N+](=O)[O-])c1,inactive: -13.3%
11,COc1ccccc1OP(C)(=O)Nc1ccc(C)c(C)c1 (stereo not drawn),inactive: 13.6%
12,COc1ccccc1OP(C)(=O)Nc1ccc(C)cc1 (stereo not drawn),inactive: -0.76%
13,Cc1ccc(NP(C)(=O)Oc2ccccc2)c(C)c1 (stereo not drawn),inactive: -1.32%
14,CCOP(C)(=S)SCC(=O)NC(C)C(=O)O (stereo not drawn),inactive: -15.7%
15,CP(=O)(NC(=O)Nc1ccccc1)Oc1ccccc1 (stereo not drawn),inactive: 1.88%
16,CP(=S)(Nn1cnnc1)Oc1ccccc1 (stereo not drawn),inactive: 3.16%
17,Cc1nc2ccc3ccccc3c2s1.O=[N+]([O-])c1cc([N+](=O)[O-])c(O)c([N+](=O)[O-])c1,inactive: 12.5%
18,Cc1ccc(C)c(NP(C)(=O)Oc2ccccc2)c1 (stereo not drawn),inactive: 2.36%
